Measurements: publication PMC5660261, “Binding and Signaling Studies Disclose a Potential Allosteric Site for Cannabidiol in Cannabinoid CB2 Receptors” (Frontiers in Pharmacology, 2017)

Sequences of proteins named here, by UniProt entry; tags and fusion partners are left off.
UniProt P34972, whole entry: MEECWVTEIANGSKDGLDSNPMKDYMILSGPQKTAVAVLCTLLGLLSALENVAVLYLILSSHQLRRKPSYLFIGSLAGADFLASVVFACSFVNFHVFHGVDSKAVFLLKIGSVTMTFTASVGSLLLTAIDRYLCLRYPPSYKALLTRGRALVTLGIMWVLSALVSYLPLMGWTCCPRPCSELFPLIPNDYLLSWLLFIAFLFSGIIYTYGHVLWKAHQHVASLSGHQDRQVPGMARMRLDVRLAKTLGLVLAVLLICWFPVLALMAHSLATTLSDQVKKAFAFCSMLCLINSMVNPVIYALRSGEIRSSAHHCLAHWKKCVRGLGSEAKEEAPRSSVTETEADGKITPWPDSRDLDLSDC

Molecular target: T1, human CB2R (Homo sapiens, UniProt P34972)
T1 construct: host or cells: HEK-293T, transient transfection, living cells
Experiment: [3H]-WIN 55,212-2 saturation radioligand binding on CHO-CB2R membranes
Settings: saturation/Scatchard, membranes from CHO cells stably expressing human CB2R

Question: How did the Bmax turn out when `Cc1c(C(=O)c2cccc3ccccc23)c2cccc3c2n1[C@H](CN1CCOCC1)CO3` [WIN 55,212-2, (R)-(+)-[2,3-dihydro-5-methyl-3-(4-morpholinylmethyl)pyrrolo[1,2,3-de]-1,4-benzoxazin-6-yl]-1-naphthalenylmethanone] was run?
Answer: Its Bmax is 8300 ± 200 fmol/mg protein.
